# Ab-14 light chain CDR variants: yeast mating affinities

Target peptide (SARS-CoV-2 spike, HR2 region): PDVDLGDISGINAS

Parent: Ab-14, a human scFv built as VH, three GGGGS repeats, VL. Only the CDRs of the light chain vary.
VH: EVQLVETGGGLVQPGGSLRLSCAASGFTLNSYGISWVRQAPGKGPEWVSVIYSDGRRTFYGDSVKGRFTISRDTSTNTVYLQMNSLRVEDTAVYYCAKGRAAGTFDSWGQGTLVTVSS
VL: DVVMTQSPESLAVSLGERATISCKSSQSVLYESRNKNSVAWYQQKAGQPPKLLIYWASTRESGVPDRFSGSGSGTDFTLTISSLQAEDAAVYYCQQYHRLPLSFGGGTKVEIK

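The parent was found by panning a naive human phage display library on the peptide. The library (AAYL50) carries one to three amino acid substitutions per variant, with no insertions or deletions. The scFvs were displayed on barcoded MATa yeast, the peptide on MATalpha yeast. The frequency of each diploid, read from paired DNA barcodes, reflects how well the two displayed proteins bind. The ratio of observed to expected reads was calibrated, replicate by replicate, on BCL2-family standards whose Kd was known from biolayer interferometry. Each pool was mated in three replicate cultures.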

Each variant is given by its three light chain CDRs, as the data file delimits them; those of the parent are KSSQSVLYESRNKNSVA, WASTRES, QQYHRLPLS. Numbers give log10(Kd / nM), so 0 is 1 nM and 3 is 1 µM. Smaller is tighter. Replicates are averaged; those with no signal do not enter the mean. A pair that was not seen in that replicate is written "nd"; this usually means weak binding, but a binder can also be missed.

Variant KSSQSVLYESRNKTSVA | AASTRES | QIYHRLPLS showed 0.67, 0.76, 0.99 (mean 0.81; controls 0 of 9).
Variant KSSQSVLYESRNWNSVA | EASTRES | QQYKRLPLS showed 0.93, 0.99, 1.02 (mean 0.98; controls 1 of 9).
Variant KSSQSVLYESRNMNSVA | WASTREK | NQYHRLPLS showed 1.58, 1.69, 1.75 (mean 1.67; controls 4 of 9).
Variant KSSQSVLYNSRNKNSVA | WASTRES | AQYHRLPLS showed nd, 2.84, nd (controls 0 of 9).
Variant KSSQSKSYESRNKNSVA | WASTRLS | QQYHRLPLS showed 1.39, 1.16, 1.04 (mean 1.19; controls 0 of 9).
Variant KSVYSVLYESRNKNSVA | WASTRES | QQYDRLPLS showed 1.67, 1.84, 1.73 (mean 1.75; controls 2 of 9).
Variant KSSQSVAYESRNKASVA | WASTRES | QQYHRLPLS showed 1.11, 1.40, 1.39 (mean 1.30; controls 1 of 9).
Variant KSSQSVNYESRNKNFVA | WASTRES | QQYHRLPLS showed nd, nd, 3.06 (controls 0 of 9).
Variant KSSQSVLYESRNKNSVA | WMSTRES | QQYWRLPLS showed nd, nd, nd (controls 0 of 9).
Variant KSSQSVLYESRNKNSVC | WASTPES | QQYHRLCLS showed nd, nd, nd (controls 3 of 9).
Variant KSSQSVLYESRNKNSVA | WASTRMS | QQYHRLPDE showed nd, 4.32, nd (controls 1 of 9).
Variant KSNQSVLYESRNKNSVA | WASTRIS | QQRHRLPLS showed nd, nd, nd (controls 0 of 9).
Variant KSSQSVLYESRCKYSVA | WRSTRES | QQYHRLPLS showed nd, nd, nd (controls 1 of 9).
Variant KSSQSFLYESRNKNSVA | WASTRES | QQRLRLPLS showed 1.37, 1.37, 1.40 (mean 1.38; controls 3 of 9).
Variant KSSQSVLYLSRCKNSYA | WASTRES | QQYHRLPLS showed nd, nd, nd (controls 1 of 9).
Variant KSLQSVLYESHNKNSVA | KASTRES | QQYHRLPLS showed nd, nd, nd (controls 0 of 9).
Variant KSSQVVLYENRNKNSHA | WASTRES | QQYHRLPLS showed 3.10, nd, nd (controls 2 of 9).
Variant KSSQSYLYESYNKNSVA | WASTRES | QQYHRLPYS showed nd, nd, 3.44 (controls 0 of 9).
Variant KSSQSVLYESRNKNRVA | WQSTRES | QQYHSLPLS showed nd, nd, nd (controls 0 of 9).
Variant KSSQSVPYESRNKNSVA | WASTRES | QQYHRLWLY showed nd, nd, nd (controls 0 of 9).
Variant KSSSSVLYESRNKNSVA | WRSTRES | QQYHRLPLS showed 3.52, 3.09, 2.59 (mean 3.07; controls 0 of 9).
Variant KSSQSVLYESRNKNSTA | WASTIES | QQYHRLPMS showed 4.41, 4.44, 4.07 (mean 4.31; controls 8 of 9).
Variant KSSQSVLYEQSNKNSVA | WAPTRES | QQYHRLPLS showed nd, nd, nd (controls 3 of 9).
Variant KSSQSVLYESRNKNSGA | WASTRES | QQYHYLPLS showed nd, 3.75, nd (controls 0 of 9).
Variant KSSQSVLYESQNKNSVA | KASTRES | QQYHRLYLS showed 0.28, 0.42, 0.26 (mean 0.32; controls 1 of 9).
Variant KSSQSVLYESRNKNSVN | WASTRLS | QQYHRLPLS showed nd, nd, nd (controls 0 of 9).
Variant PSSQSVLAESRNKNSVA | WAETRES | QQYHRLPLS showed nd, nd, 5.68 (controls 1 of 9).
Variant KSCQSVLYESRNKNSNA | WASTRES | QQYHRLPLS showed nd, nd, nd (controls 2 of 9).
Variant GSSQSVLYESRNKNSVA | WASTRES | QQYHRWCLS showed nd, nd, nd (controls 0 of 9).
Variant KSSQSVLYESMNKNSVA | WAKTLES | QQYHRLPLS showed nd, nd, nd (controls 2 of 9).
Variant KSSQSVLYESRNKNSVA | WASYRES | QQYHRLPCS showed nd, nd, nd (controls 0 of 9).
Variant KSSQSVKYESRNLKSVA | WASTRES | QQYHRLPLS showed 1.74, 2.31, 2.17 (mean 2.07; controls 0 of 9).
Variant KSSQSVLYWSRNKNSVA | WASTRES | DIYHRLPLS showed 3.21, 2.94, 3.13 (mean 3.09; controls 0 of 9).
Variant KSSQSVLYESRNKNSEA | WASTRES | QQYHRLPLS showed 5.34, nd, 4.72 (mean 5.03; controls 3 of 9).
Variant KSSQVVLYESRNKNSVA | WASSRES | QQYHRLPLS showed nd, nd, nd (controls 1 of 9).

Excerpt, the first 3 entries:

CDR-L1,CDR-L2,CDR-L3,"log10 Kd, replicates","log10 Kd (nM), mean",signal with controls
KSSQSVLYESRNKTSVA,AASTRES,QIYHRLPLS,"0.67, 0.76, 0.99",0.81,0/9
KSSQSVLYESRNWNSVA,EASTRES,QQYKRLPLS,"0.93, 0.99, 1.02",0.98,1/9
KSSQSVLYESRNMNSVA,WASTREK,NQYHRLPLS,"1.58, 1.69, 1.75",1.67,4/9

Background: pairings of library AAYL50 with three empty control strains gave a value in 18% of cases (median 4.19, 5th percentile 2.99). Values in that range, when seen in few replicates, are hard to tell from nonspecific mating. For each scFv, signals with the empty controls are counted beside the result. Parent in this assay: reference entry 0.65, copy in this library 1.68.

The measurements come from Engelhart et al. 2022 (doi:10.1038/s41597-022-01779-4) through the FLAb antibody collection.